Experimental data as given in patent US9884093B2 (Eli Lilly and Company, priority 2015, dated 2018).

How the values were obtained:
[1] = Solubility and stability at 10 mg/mL, one week at 4° C. (visual, SEC-HPLC, RP-HPLC); format: physicochemical; settings: one week 4° C.
[2] = T7Nm (and T7 for combinations), 4° C. and 40° C., four weeks
[3] = Pharmacokinetics in Cynomolgus monkeys; format: in vivo; settings: cynomolgus monkey, plasma; male Cynomolgus monkeys, IV 50 nmol/kg, mean n=2

Δ % Main Peak ([1]; H7.5N)	Compound	Δ % HMW Peak ([1]; C6N)	Δ % Main Peak ([1]; C6N)	Δ % HMW Peak ([1]; C7N)	Δ % Main Peak ([1]; C7N)	Δ % HMW Peak ([1]; H6.5N)	Δ % HMW Peak ([1]; H7.5N)	Δ % Main Peak ([1]; H6.5N)	Sites of degradation by LC-MS [2]	C0 [3]	clearance [3]
	CC(C)C[C@H](NC(=O)[C@H](Cc1c[nH]c2ccccc12)NC(=O)[C@H](CCC(=O)O)NC(=O)[C@@H](NC(=O)[C@H](Cc1ccccc1)NC(=O)[C@H](CCC(=O)O)NC(=O)[C@H](CCCCNC(=O)COCCOCCNC(=O)COCCOCCNC(=O)CC[C@H](NC(=O)CC[C@H](NC(=O)CCCCCCCCCCCCCCCCC(=O)O)C(=O)O)C(=O)O)NC(=O)[C@H](C)NC(=O)[C@H](CCCCN)NC(=O)[C@H](CCCCN)NC(=O)C(C)(C)NC(=O)[C@H](CC(=O)O)NC(=O)[C@H](CC(C)C)NC(=O)[C@H](Cc1ccc(O)cc1)NC(=O)[C@H](CCCCN)NC(=O)[C@H](CO)NC(=O)[C@H](Cc1ccc(O)cc1)NC(=O)[C@H](CC(=O)O)NC(=O)[C@H](CO)NC(=O)[C@H](CC(C)C)NC(=O)[C@H](Cc1ccccc1)NC(=O)[C@@H](NC(=O)CNC(=O)[C@H](CCC(N)=O)NC(=O)C(C)(C)NC(=O)[C@@H](N)Cc1ccc(O)cc1)[C@@H](C)O)C(C)C)C(=O)N[C@@H](CC(C)C)C(=O)N[C@@H](CCC(=O)O)C(=O)N[C@H](C(=O)NCC(=O)N1CCC[C@H]1C(=O)N[C@@H](CO)C(=O)N[C@@H](CO)C(=O)NCC(=O)N[C@@H](C)C(=O)N1CCC[C@H]1C(=O)N1CCC[C@H]1C(=O)N1CCC[C@H]1C(=O)N[C@@H](CO)C(N)=O)[C@@H](C)O [Example 3]	−0.01%	0.08%	0.16%	−0.18%	−0.03%	−0.09%	−0.58%			
	CC(C)C[C@H](NC(=O)[C@H](Cc1c[nH]c2ccccc12)NC(=O)[C@H](CCC(=O)O)NC(=O)[C@@H](NC(=O)[C@H](Cc1ccccc1)NC(=O)[C@H](CCC(=O)O)NC(=O)[C@H](CCCCNC(=O)COCCOCCNC(=O)COCCOCCNC(=O)CC[C@H](NC(=O)CC[C@H](NC(=O)CCCCCCCCCCCCCCCCC(=O)O)C(=O)O)C(=O)O)NC(=O)[C@H](C)NC(=O)[C@H](CCCCN)NC(=O)[C@H](CCCCN)NC(=O)C(C)(C)NC(=O)[C@H](CC(=O)O)NC(=O)[C@H](CC(C)C)NC(=O)[C@H](Cc1ccc(O)cc1)NC(=O)[C@H](CCCCN)NC(=O)[C@H](CO)NC(=O)[C@H](Cc1ccc(O)cc1)NC(=O)[C@H](CC(=O)O)NC(=O)[C@H](CO)NC(=O)[C@@H](NC(=O)[C@H](Cc1ccccc1)NC(=O)[C@@H](NC(=O)CNC(=O)[C@H](CCC(N)=O)NC(=O)C(C)(C)NC(=O)[C@@H](N)Cc1ccc(O)cc1)[C@@H](C)O)[C@@H](C)O)C(C)C)C(=O)N[C@@H](CC(C)C)C(=O)N[C@@H](CCC(=O)O)C(=O)N[C@H](C(=O)NCC(=O)N1CCC[C@H]1C(=O)N[C@@H](CO)C(=O)N[C@@H](CO)C(=O)NCC(=O)N[C@@H](C)C(=O)N1CCC[C@H]1C(=O)N1CCC[C@H]1C(=O)N1CCC[C@H]1C(=O)N[C@@H](CO)C(N)=O)[C@@H](C)O [Example 1]	0.13%	−0.02%	0%	0.26%	−0.02%	0.35%	−0.39%	No major sites of degradation are identified	1180 nM	1.36 mL/h/kg
−0.79%	CC(C)C[C@H](NC(=O)[C@H](Cc1c[nH]c2ccccc12)NC(=O)[C@H](CCC(=O)O)NC(=O)[C@@H](NC(=O)[C@H](Cc1ccccc1)NC(=O)[C@H](CCC(=O)O)NC(=O)[C@H](CCCCNC(=O)COCCOCCNC(=O)COCCOCCNC(=O)CC[C@H](NC(=O)CC[C@H](NC(=O)CCCCCCCCCCCCCCCCC(=O)O)C(=O)O)C(=O)O)NC(=O)[C@H](C)NC(=O)[C@H](CCCCN)NC(=O)[C@H](CCCCN)NC(=O)C(C)(C)NC(=O)[C@H](CC(=O)O)NC(=O)[C@H](CC(C)C)NC(=O)[C@H](Cc1ccc(O)cc1)NC(=O)[C@H](CCCCN)NC(=O)[C@H](CO)NC(=O)[C@H](Cc1ccc(O)cc1)NC(=O)[C@H](CC(=O)O)NC(=O)[C@H](CO)NC(=O)[C@@H](NC(=O)[C@H](Cc1ccccc1)NC(=O)[C@@H](NC(=O)CNC(=O)[C@H](CCC(N)=O)NC(=O)C(C)(C)NC(=O)[C@@H](N)Cc1ccc(O)cc1)[C@@H](C)O)[C@@H](C)O)C(C)C)C(=O)N[C@@H](CC(C)C)C(=O)N[C@@H](CCC(=O)O)C(=O)N[C@H](C(=O)NCC(=O)N1CCC[C@H]1C(=O)N[C@@H](CO)C(=O)N[C@@H](CO)C(=O)NCC(N)=O)[C@@H](C)O [Example 4]	0.64%	−3.42%	0.26%	−1.19%	0.35%	0.44%	−2.88%			
−1.68%	CC(C)C[C@H](NC(=O)[C@H](Cc1c[nH]c2ccccc12)NC(=O)[C@H](C)NC(=O)[C@@H](NC(=O)[C@H](Cc1ccccc1)NC(=O)[C@H](CCC(=O)O)NC(=O)[C@H](CCCCNC(=O)COCCOCCNC(=O)COCCOCCNC(=O)CC[C@H](NC(=O)CCCCCCCCCCCCCCCCC(=O)O)C(=O)O)NC(=O)[C@H](C)NC(=O)[C@H](CCCCN)NC(=O)[C@H](CCCCN)NC(=O)C(C)(C)NC(=O)[C@H](CC(=O)O)NC(=O)[C@H](CC(C)C)NC(=O)[C@H](Cc1ccc(O)cc1)NC(=O)[C@H](CCCCN)NC(=O)[C@H](CO)NC(=O)[C@H](Cc1ccc(O)cc1)NC(=O)[C@H](CC(=O)O)NC(=O)[C@H](CO)NC(=O)[C@@H](NC(=O)[C@H](Cc1ccccc1)NC(=O)[C@@H](NC(=O)CNC(=O)[C@H](CCC(N)=O)NC(=O)C(C)(C)NC(=O)[C@@H](N)Cc1ccc(O)cc1)[C@@H](C)O)[C@@H](C)O)C(C)C)C(=O)N[C@@H](CC(C)C)C(=O)N[C@@H](CCC(=O)O)C(=O)N[C@@H](CCC(=O)O)C(=O)O [Example 6]	−0.03%	−0.98%	−0.26%	0.36%	0.11%	0.14%	−1.17%			

Compound	Δ % Main Peak ([1]; H7.5N)	Δ % HMW Peak ([1]; C6N)	Δ % Main Peak ([1]; C6N)	Δ % HMW Peak ([1]; C7N)	Δ % Main Peak ([1]; C7N)	Δ % HMW Peak ([1]; H6.5N)	Δ % HMW Peak ([1]; H7.5N)	Δ % Main Peak ([1]; H6.5N)	Sites of degradation by LC-MS [2]	C0 [3]	clearance [3]
CC(C)C[C@H](NC(=O)[C@H](Cc1c[nH]c2ccccc12)NC(=O)[C@H](CCC(=O)O)NC(=O)[C@@H](NC(=O)[C@H](Cc1ccccc1)NC(=O)[C@H](CCC(=O)O)NC(=O)[C@H](CCCCNC(=O)COCCOCCNC(=O)COCCOCCNC(=O)CC[C@H](NC(=O)CC[C@H](NC(=O)CCCCCCCCCCCCCCCCCCC(=O)O)C(=O)O)C(=O)O)NC(=O)[C@H](C)NC(=O)[C@H](CCCCN)NC(=O)[C@H](CCCCN)NC(=O)C(C)(C)NC(=O)[C@H](CC(=O)O)NC(=O)[C@H](CC(C)C)NC(=O)[C@H](Cc1ccc(O)cc1)NC(=O)[C@H](CCCCN)NC(=O)[C@H](CO)NC(=O)[C@H](Cc1ccc(O)cc1)NC(=O)[C@H](CC(=O)O)NC(=O)[C@H](CO)NC(=O)[C@@H](NC(=O)[C@H](Cc1ccccc1)NC(=O)[C@@H](NC(=O)CNC(=O)[C@H](CCC(N)=O)NC(=O)C(C)(C)NC(=O)[C@@H](N)Cc1ccc(O)cc1)[C@@H](C)O)[C@@H](C)O)C(C)C)C(=O)N[C@@H](CC(C)C)C(=O)N[C@@H](CCC(=O)O)C(=O)N[C@H](C(=O)NCC(=O)N1CCC[C@H]1C(=O)N[C@@H](CO)C(=O)N[C@@H](CO)C(=O)NCC(=O)N[C@@H](C)C(=O)N1CCC[C@H]1C(=O)N1CCC[C@H]1C(=O)N1CCC[C@H]1C(=O)N[C@@H](CO)C(N)=O)[C@@H](C)O [Example 2]	−0.87%	−0.03%	0.08%	−0.06%	−0.26%	0.06%	−0.15%				
